In US20210290732A1, “GLP-1R and GCGR Agonists, Formulations, and Methods of Use” (Spitfire Pharma LLC, priority 2020, published 2021):
Read-outs that look alike come from different tables or passages of the source.

Tests used:
[1] = plasma protein binding by ultracentrifugation, dog plasma; type: in vitro ADME; conditions: pH 7.4, 15000 ng/mL, 37° C., 6 hours
Excerpt: Such non-covalent binding to albumin is anticipated to slow down the degradation of peptide in plasma and results in decreased renal clearance. […] Pooled plasma was obtained from at least three Sprague Dawley rats, beagle dogs, and cynomolgus monkeys. Pooled human plasma was obtained from three human males (that reportedly had not taken any medication in the previous 7 days before collection). K2EDTA was used as the anticoagulant. The pH of each pool of plasma was adjusted, if needed, to approximately pH 7.4 with hydrochloric acid or sodium hydroxide. Ultracentrifugation was performed using polycarbonate ultracentrifugation tube placed in a S80 AT2 rotor at 37° C. at 357000×g for 6 hours to achieve separation of PUC (supernatant) from plasma proteins. After centrifugation, the PUC was analyzed by LC MS for the calculation of protein binding. Protein Binding was evaluated as Percent unbound=(Cu/Co)×100 and Percent bound=100-percent unbound where Co is the concentration of test article in plasma prior to ultracentrifugation (ng/mL) and Cu is the concentration of test article in plasma in the ultracentrifugate (ng/mL).

[2] = 6-week repeat-dose toxicity and toxicokinetics in cynomolgus monkeys (once weekly SC); type: in vivo, cynomolgus monkey (Macaca fascicularis); conditions: for AUC(0-t) / Cmax / Tmax / half-life: mean, monkey plasma
Method: The study was conducted by Covance.
Male and female cynomolgus monkeys (28 animals/sex; Macaca fascicularis) of Asian origin were received from Envigo Global Services Inc. (previously Covance Research Products) in Alice, Tex. Animals were acclimated to the test facility for at least 30 days prior to initiation.
Animals were dosed via subcutaneous injection into the dorsal region on Days 1, 8, 15, 22, 29, and 36 of the dosing phase at a volume of 2.0 mL/kg. The vehicle control article was F58 Formulation Buffer, which consisted of 0.050% (w/w) polysorbate 20, 0.348% (w/w) arginine, 4.260% (w/w) mannitol in deionized water (pH 7.7±0.1).
Assessment of toxicity was based on mortality, clinical observations, body weights, qualitative food consumption, ophthalmic observations, electrocardiographic (ECG) measurements, neurological examinations, qualitative respiration rates, and clinical and anatomic pathology. Blood samples were collected for toxicokinetic evaluations.
The dose sites were in the dorsal scapular region of each animal. Doses were rotated between the sites. The dose sites were as follows: Dose Site A: Upper left scapular region, Dose Site B: Upper right scapular region, Dose Site C: Lower left scapular region, Dose Site D: Lower right scapular region The following animals were not dosed due to body weight loss, body condition score, and veterinary recommendation on the days listed in the following table.
Body weights were recorded for animals four times during the predose phase, on Day −1 of the dosing phase (day prior to dose initiation), and weekly thereafter (based on Day −1) to Day 14 of the dosing phase. Starting on Day 14 of the dosing phase, body weights were collected twice weekly (based on Day 14) through to the end of the dosing phase. Body weights were collected on Days 1, 8, 15, 22, and 28 of the recovery phase. Data presented in FIG. 13 and FIG. 14 represent body weight change as a % of Day-1 in males and females respectively.

[3] = both sexes, cynomolgus monkey, plasma, subcutaneous, 0.03 mg/kg, Day 1, Group 2, 0.03 mg/kg, MF
[4] = both sexes, cynomolgus monkey, plasma, subcutaneous, 0.03 mg/kg, Day 36, Group 2, 0.03 mg/kg, MF
[5] = both sexes, cynomolgus monkey, plasma, subcutaneous, 0.06 mg/kg, Day 1, Group 3, 0.06 mg/kg, MF
[6] = both sexes, cynomolgus monkey, plasma, subcutaneous, 0.06 mg/kg, Day 36, Group 3, 0.06 mg/kg, MF
[7] = both, cynomolgus monkey, plasma, subcutaneous, […], Day 1, Group 4, […], MF
[8] = both, cynomolgus monkey, plasma, subcutaneous, […], Day 1, Group 5, […], MF
[9] = both, cynomolgus monkey, plasma, subcutaneous, […], Day 36, Group 4, […], MF
[10] = both, cynomolgus monkey, plasma, subcutaneous, […], Day 36, Group 5, […], MF
[11] = cynomolgus monkeys, dosing or recovery phase
[12] = cynomolgus monkeys, terminal or recovery sacrifices
[13] = female, cynomolgus monkey, plasma, subcutaneous, 0.03 mg/kg, Day 1, Group 2, 0.03 mg/kg, F
[14] = female, cynomolgus monkey, plasma, subcutaneous, 0.03 mg/kg, Day 36, Group 2, 0.03 mg/kg, F

SMILES: CC[C@H](C)[C@H](NC(=O)[C@H](Cc1ccccc1)NC(=O)[C@H](CCC(=O)O)NC(=O)[C@@H]1CCCCNC(=O)CC[C@H](NC(=O)[C@H](CC(=O)O)NC(=O)[C@H](CC(C)C)NC(=O)[C@H](Cc2ccc(O)cc2)NC(=O)[C@H](CCCCN)NC(=O)[C@H](CO)NC(=O)[C@H](Cc2ccc(O)cc2)NC(=O)[C@H](CC(=O)O)NC(=O)[C@H](CO)NC(=O)[C@@H](NC(=O)[C@H](Cc2ccccc2)NC(=O)[C@@H](NC(=O)CNC(=O)[C@H](CCC(N)=O)NC(=O)C(C)(C)NC(=O)[C@@H](N)Cc2c[nH]cn2)[C@@H](C)O)[C@@H](C)O)C(=O)N[C@@H](CCCCNC(=O)[C@H]2O[C@@H](OCCCCCCCCCCCCCCCCCC(=O)O)[C@H](O)[C@@H](O)[C@@H]2O)C(=O)N[C@@H](C)C(=O)N[C@@H](C)C(=O)N1)C(=O)N[C@@H](CCC(N)=O)C(=O)N[C@@H](Cc1c[nH]c2ccccc12)C(=O)N[C@@H](CC(C)C)C(=O)N[C@@H](CC(C)C)C(=O)N[C@@H](CCC(N)=O)C(=O)N[C@H](C(N)=O)[C@@H](C)O [SEQ ID NO: 1]
- fraction unbound [1]: 0.00205
- NOAEL at 6 weeks ([2]; both sexes, cynomolgus monkey, in vivo, subcutaneous, monkeys, high dose): 0.25 mg/kg
- AUC(0-t) ([2]; both sexes, cynomolgus monkey, plasma, subcutaneous, 0.03 mg/kg, AUC0-168, Day 1, Group 2, 0.03 mg/kg, MF): 6100 ng·h/mL
- AUC(0-t) ([2]; both sexes, cynomolgus monkey, plasma, subcutaneous, 0.03 mg/kg, AUC0-168, Day 36, Group 2, 0.03 mg/kg, MF): 6280 ng·h/mL
- Cmax [2, 3]: 60.9 ng/mL
- Tmax [2, 3]: 48 h
- half-life [2, 3]: 56.5 h
- AUC(0-t) ([2]; both sexes, cynomolgus monkey, plasma, subcutaneous, 0.03 mg/kg, Day 1, Group 2, 0.03 mg/kg, MF, read-out: AUC0-t): 6100 ng·h/mL
- Cmax [2, 4]: 64.9 ng/mL
- Tmax [2, 4]: 48 h
- half-life [2, 4]: 54.5 h
- AUC(0-t) ([2]; both sexes, cynomolgus monkey, plasma, subcutaneous, 0.03 mg/kg, Day 36, Group 2, 0.03 mg/kg, MF, read-out: AUC0-312): 7640 ng·h/mL
- AUC(0-t) ([2]; both sexes, cynomolgus monkey, plasma, subcutaneous, 0.03 mg/kg, Day 36, Group 2, 0.03 mg/kg, MF, read-out: AUC0-t): 7500 ng·h/mL
- AUC(0-t) ([2]; both sexes, cynomolgus monkey, plasma, subcutaneous, 0.06 mg/kg, AUC0-168, Day 1, Group 3, 0.06 mg/kg, MF): 10300 ng·h/mL
- AUC(0-t) ([2]; both sexes, cynomolgus monkey, plasma, subcutaneous, 0.06 mg/kg, AUC0-168, Day 36, Group 3, 0.06 mg/kg, MF): 13400 ng·h/mL
- Cmax [2, 5]: 99.5 ng/mL
- Tmax [2, 5]: 48 h
- half-life [2, 5]: 53.7 h
- AUC(0-t) ([2]; both sexes, cynomolgus monkey, plasma, subcutaneous, 0.06 mg/kg, Day 1, Group 3, 0.06 mg/kg, MF, read-out: AUC0-t): 10300 ng·h/mL
- Cmax [2, 6]: 140 ng/mL
- Tmax [2, 6]: 36 h
- half-life [2, 6]: 60.3 h
- AUC(0-t) ([2]; both sexes, cynomolgus monkey, plasma, subcutaneous, 0.06 mg/kg, Day 36, Group 3, 0.06 mg/kg, MF, read-out: AUC0-312): 15400 ng·h/mL
- AUC(0-t) ([2]; both sexes, cynomolgus monkey, plasma, subcutaneous, 0.06 mg/kg, Day 36, Group 3, 0.06 mg/kg, MF, read-out: AUC0-t): 15300 ng·h/mL
- Tmax [2, 7]: 48 h
- half-life [2, 7]: 61.6 h
- Tmax [2, 8]: 36 h
- half-life [2, 8]: 63 h
- Tmax [2, 9]: 36 h
- half-life [2, 9]: 62.3 h
- Tmax [2, 10]: 48 h
- half-life [2, 10]: 61.8 h
- AUC ([2]; both, cynomolgus monkey, plasma, subcutaneous, cynomolgus monkeys, 0.25 mg/kg/dose, read-out: area under the concentration time curve (AUC) at the NOAEL): 62300 ng·h/mL
- hematology, coagulation, clinical chemistry, urinalysis ([2]; cynomolgus monkeys): No ALT-801-related findings
- no adverse effect level (NOAEL) ([2]; cynomolgus monkeys): 0.25 mg/kg/week
- mortality [2, 11]: No ALT-801-related mortality
- neurological observations [2, 11]: No remarkable neurological observations
- ophthalmic observations ([2]; cynomolgus monkeys, dosing phase): No remarkable ophthalmic observations
- food consumption, females ([2]; cynomolgus monkeys, females administered ≥0.03 mg/kg/dose): lower food consumption
- food consumption, males ([2]; cynomolgus monkeys, males administered ≥0.03 mg/kg/dose): No ALT-801-related changes in food consumption
- organ weights ([2]; cynomolgus monkeys, terminal or recovery necropsies): No ALT-801-related changes in organ weights
- macroscopic findings [2, 12]: No ALT-801-related macroscopic findings
- microscopic findings [2, 12]: No ALT-801-related microscopic findings
- vomitus ([2]; cynomolgus monkeys, observed once on Day 2 in two females): not considered an ALT-801-related clinical observation
- AUC(0-t) ([2]; female, cynomolgus monkey, plasma, subcutaneous, 0.03 mg/kg, AUC0-168, Day 1, Group 2, 0.03 mg/kg, F): 6140 ng·h/mL
- AUC(0-t) ([2]; female, cynomolgus monkey, plasma, subcutaneous, 0.03 mg/kg, AUC0-168, Day 36, Group 2, 0.03 mg/kg, F): 5970 ng·h/mL
- Cmax [2, 13]: 61.8 ng/mL
- Tmax [2, 13]: 48 h
- half-life [2, 13]: 56.1 h
- AUC(0-t) ([2]; female, cynomolgus monkey, plasma, subcutaneous, 0.03 mg/kg, Day 1, Group 2, 0.03 mg/kg, F, read-out: AUC0-t): 6140 ng·h/mL
- Cmax [2, 14]: 65.9 ng/mL
- Tmax [2, 14]: 30 h
